Earlier results on 1 substance are cited in publication PMC8063737, “Mechanistic analysis of actin-binding compounds that affect the kinetics of cardiac myosin–actin interaction” (The Journal of Biological Chemistry, 2021).

Details in all cases: cited from earlier work
For data set [1], the target named is cardiac myosin β-S1 S1 (Bos taurus) (UniProt Q9BE39).
Data set [2] has as its target masseter myosin β-S1 S1 (Bos taurus) (UniProt Q9BE39).
Data set [3] deals with cardiac myosin S1 S1 (Homo sapiens) (UniProt P12883).

Several values for one entry are separate records, joined by “and”; a condition that tells them apart may be missing. Equal entries are not always repeated.

By Kd is commonly meant the equilibrium constant for the complex coming apart. actin (from UniProt P68135): the Kd in data set [1] is 6.3 nM; in data set [2] it was 7 nM; in data set [3], 10 nM and 8 nM.
